Assay results from patent US6503881B2 (priority 1996, dated 2003).

Key:
[1] = test system: bacteria tolerant to the antibiotic agent; conditions: Vancomycin in combination with MBI 26; organisms of Table 18
[2] = assay type: in vivo; conditions: iv single dose, Swiss CD-1 mice

Row | Molecule | tolerance (MBC:MIC ratio) [1] | dose at which all subjects die [2] [mg/mL]
1 | CN[C@H](CC(C)C)C(=O)N[C@H]1C(=O)N[C@@H](CC(N)=O)C(=O)N[C@H]2C(=O)N[C@H]3C(=O)N[C@H](C(=O)N[C@H](C(=O)O)c4cc(O)cc(O)c4-c4cc3ccc4O)[C@H](O)c3ccc(c(Cl)c3)Oc3cc2cc(c3O[C@@H]2O[C@H](CO)[C@@H](O)[C@H](O)[C@H]2O[C@H]2C[C@](C)(N)[C@H](O)[C@H](C)O2)Oc2ccc(cc2Cl)[C@H]1O [Vancomycin] | overcomes the tolerance | 
2 | I L K K W P W W P W R R K [MBI 11CN] |  | 8
